Consider 1 compound from PubChem BioAssay AID1452 (National Center for Advancing Translational Sciences (NCATS), 2008).

Amino acid sequences for entries named in this document (tags omitted).
UniProt P18054, whole entry: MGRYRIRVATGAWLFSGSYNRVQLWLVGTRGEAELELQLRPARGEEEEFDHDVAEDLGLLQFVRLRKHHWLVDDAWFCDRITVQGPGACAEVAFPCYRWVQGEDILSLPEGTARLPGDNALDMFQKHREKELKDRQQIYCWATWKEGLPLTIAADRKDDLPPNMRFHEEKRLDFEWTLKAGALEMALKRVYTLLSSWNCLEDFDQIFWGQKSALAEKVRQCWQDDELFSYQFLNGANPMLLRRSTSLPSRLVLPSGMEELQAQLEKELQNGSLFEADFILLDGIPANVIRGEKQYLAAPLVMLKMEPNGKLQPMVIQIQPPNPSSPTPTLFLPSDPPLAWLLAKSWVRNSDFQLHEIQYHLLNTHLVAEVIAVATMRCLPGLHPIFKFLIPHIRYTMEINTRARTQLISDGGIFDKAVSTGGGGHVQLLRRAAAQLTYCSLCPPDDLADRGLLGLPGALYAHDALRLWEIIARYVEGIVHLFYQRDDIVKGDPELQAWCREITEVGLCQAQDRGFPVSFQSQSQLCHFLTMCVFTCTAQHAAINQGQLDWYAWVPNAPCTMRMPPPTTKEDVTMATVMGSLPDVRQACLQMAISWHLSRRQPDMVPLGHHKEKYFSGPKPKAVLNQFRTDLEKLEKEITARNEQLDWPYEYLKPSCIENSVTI

Each structure is given as a SMILES string. This is a selection; strong and weak results do not stand in their true shares. Activity calls are given as the source filed them. Calls follow the shape of the dose curve; as a rule, active = well fitted inhibition curve with a large enough effect; inconclusive = small, poorly fitted or top-dose-only effect; inactive = flat fitted curve, though single readings scatter.
% is scaled to controls: 0 for no effect and ±100 for the full control effect.

The test addresses Polyunsaturated fatty acid lipoxygenase ALOX12 (Homo sapiens) (UniProt P18054). Kind of test: qHTS Assay for Inhibitors of 12-hLO (12-human lipoxygenase). Also: nearly all actives have a fitted effect of over 55% in size. The note with it: purified 12-hLO, xylenol orange hydroperoxide absorbance; at 11.4 µM (top of the series). The source says: Assay Provider: Holman, T.R., University of California, Santa Cruz Screening Center PI: Austin, C.P. Screening Center: NIH Chemical Genomics Center [NCGC] Human lipoxygenase 12hLO is a member of the closely related lipoxygenase family of enzymes which catalyze the site-specific oxidation of arachidonic acid to various hormone precursor molecules and as such is a candidate for drug development in a variety of disease areas, such as cancer and inflammation. Inhibition of 12hLO activity was screened by utilizing arachidonic acid as a substrate. The extent of hydroperoxide product formation was measured by a secondary chromogenic reaction in which xylenol orange (XO, Sigma-Aldrich, cat. number 39,818-7) reacts with the ferric ions produced from the reaction between the hydroperoxide and ferrous ions. The Fe(III)-XO complex is characterized with red-shifted absorbance at 560 nm. A purified preparation of human 12hLO was supplied by Professor Ted Holman, University of California, Santa Cruz.
Assay Protocol: Buffer: 25 mM Hepes pH 7.0, 0.01% Triton X-100. Reagents/Controls: Buffer in columns 3 and 4 as negative control (no enzyme). […] The absorbance at 405 and 573 nm were measured using ViewLux (Perkin-Elmer) High-throughput CCD imager and absorbance protocol settings. The 573-to-405 absorbance ratio was used to compute reaction progress.
A general note: Quantitative high-throughput screening tests each substance at several concentrations.
As to `NC(=O)Nc1cc([As](=O)(O)O)cc(I)c1O`, the activity change, negative = inhibition was inactive: 1.37%.
